# Literature values as cited in US4255420A, “Hormone combination and method for stimulation of ovulation” (VEB Berlin-Chemie, priority 1978, dated 1981).
# Test system: swine
# Details: after presynchronization and PMSG; considerable variation
substance,measurement,value
HCG: gonadotropin hormone derived from the urine of pregnant women,time of ovulation after the HCG injection,about 42 hours
